Results from patent US20240209034A1 (priority 2021, published 2024).

By UniProt entry, the sequences of proteins in these tests, tags left out. Residues count along the entry.
UniProt P06756, 891-1048 partner limits assumed: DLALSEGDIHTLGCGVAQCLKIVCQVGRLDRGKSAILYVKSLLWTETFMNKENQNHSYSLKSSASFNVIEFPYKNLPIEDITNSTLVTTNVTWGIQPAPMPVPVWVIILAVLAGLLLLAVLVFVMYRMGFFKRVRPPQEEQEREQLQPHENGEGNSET
UniProt P06756, 31-889 limits assumed: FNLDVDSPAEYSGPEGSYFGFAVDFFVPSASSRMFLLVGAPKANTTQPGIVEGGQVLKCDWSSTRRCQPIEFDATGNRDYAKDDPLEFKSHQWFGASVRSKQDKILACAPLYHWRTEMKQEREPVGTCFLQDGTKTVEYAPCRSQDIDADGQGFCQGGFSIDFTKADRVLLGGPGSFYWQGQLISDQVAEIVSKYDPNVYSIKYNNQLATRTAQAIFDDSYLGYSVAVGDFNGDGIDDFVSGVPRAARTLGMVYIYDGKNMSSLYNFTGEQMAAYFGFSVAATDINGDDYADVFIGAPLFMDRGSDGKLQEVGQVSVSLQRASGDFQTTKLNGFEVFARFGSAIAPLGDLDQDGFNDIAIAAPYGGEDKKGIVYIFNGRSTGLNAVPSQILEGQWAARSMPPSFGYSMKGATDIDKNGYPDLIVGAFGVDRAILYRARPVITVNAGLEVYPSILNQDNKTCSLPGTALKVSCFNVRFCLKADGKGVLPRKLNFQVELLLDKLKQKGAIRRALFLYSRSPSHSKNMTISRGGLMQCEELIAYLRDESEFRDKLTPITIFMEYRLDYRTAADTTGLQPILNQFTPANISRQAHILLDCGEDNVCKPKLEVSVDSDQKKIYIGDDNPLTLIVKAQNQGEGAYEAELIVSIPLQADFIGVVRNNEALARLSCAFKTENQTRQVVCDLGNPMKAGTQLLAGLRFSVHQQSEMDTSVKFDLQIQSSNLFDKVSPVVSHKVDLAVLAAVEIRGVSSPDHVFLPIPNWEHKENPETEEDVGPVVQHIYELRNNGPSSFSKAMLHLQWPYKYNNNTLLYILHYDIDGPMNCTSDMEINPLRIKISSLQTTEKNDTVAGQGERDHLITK
UniProt P06756, 891-992 partner limits assumed: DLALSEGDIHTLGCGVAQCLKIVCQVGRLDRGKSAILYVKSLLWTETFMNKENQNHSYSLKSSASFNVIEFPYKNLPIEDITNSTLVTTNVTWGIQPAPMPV
UniProt P18564, 22-788 limits assumed: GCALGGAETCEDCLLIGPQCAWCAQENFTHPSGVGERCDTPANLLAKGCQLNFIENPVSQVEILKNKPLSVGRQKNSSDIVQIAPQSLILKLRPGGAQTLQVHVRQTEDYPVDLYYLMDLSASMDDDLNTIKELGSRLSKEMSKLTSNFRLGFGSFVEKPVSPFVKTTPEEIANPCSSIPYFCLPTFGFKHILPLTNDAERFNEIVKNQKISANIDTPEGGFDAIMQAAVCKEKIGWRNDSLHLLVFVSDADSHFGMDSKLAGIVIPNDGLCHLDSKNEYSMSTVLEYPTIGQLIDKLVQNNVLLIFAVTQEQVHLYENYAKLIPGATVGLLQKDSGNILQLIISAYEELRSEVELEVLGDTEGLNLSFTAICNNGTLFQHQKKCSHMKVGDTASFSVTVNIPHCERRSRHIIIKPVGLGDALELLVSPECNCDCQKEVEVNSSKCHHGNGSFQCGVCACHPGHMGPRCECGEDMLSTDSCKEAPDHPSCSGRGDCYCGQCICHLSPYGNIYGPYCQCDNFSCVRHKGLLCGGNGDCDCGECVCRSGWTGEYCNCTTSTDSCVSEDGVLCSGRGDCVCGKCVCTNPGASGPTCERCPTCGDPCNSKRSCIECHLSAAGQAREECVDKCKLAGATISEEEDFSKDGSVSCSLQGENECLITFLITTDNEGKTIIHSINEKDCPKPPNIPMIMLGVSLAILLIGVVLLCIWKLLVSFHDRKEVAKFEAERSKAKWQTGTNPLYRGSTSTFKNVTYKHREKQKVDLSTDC
UniProt P18564, 22-707 limits assumed: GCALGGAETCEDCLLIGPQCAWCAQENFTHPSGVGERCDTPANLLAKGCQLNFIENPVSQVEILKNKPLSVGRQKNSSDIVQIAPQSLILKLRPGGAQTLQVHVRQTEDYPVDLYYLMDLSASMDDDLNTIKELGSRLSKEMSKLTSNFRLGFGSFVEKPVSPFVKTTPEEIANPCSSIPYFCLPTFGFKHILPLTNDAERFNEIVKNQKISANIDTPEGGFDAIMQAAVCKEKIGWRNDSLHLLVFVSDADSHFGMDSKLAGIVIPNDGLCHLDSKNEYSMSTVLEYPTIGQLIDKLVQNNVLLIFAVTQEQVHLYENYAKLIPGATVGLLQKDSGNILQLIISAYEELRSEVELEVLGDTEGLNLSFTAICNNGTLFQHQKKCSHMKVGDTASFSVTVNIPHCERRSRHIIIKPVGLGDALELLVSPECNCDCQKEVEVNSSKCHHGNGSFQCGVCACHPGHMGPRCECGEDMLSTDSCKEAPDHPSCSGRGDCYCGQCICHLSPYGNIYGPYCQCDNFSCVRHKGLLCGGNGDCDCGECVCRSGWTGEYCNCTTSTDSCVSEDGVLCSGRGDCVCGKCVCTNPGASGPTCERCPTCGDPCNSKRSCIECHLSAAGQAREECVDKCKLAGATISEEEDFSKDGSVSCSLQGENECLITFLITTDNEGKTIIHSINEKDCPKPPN

Experiments:
[1] = biological target: integrin αvβ6 (K562 αvβ6:mCherry cells) (Homo sapiens, UniProt P06756+P18564); details: read-out: apparent binding affinity (KD)
αvβ6 integrin = αvβ6 integrin (Homo sapiens, UniProt P06756+P18564); details: cited from earlier work

## CC(C)C[C@H](NC(=O)[C@H](CC(=O)O)NC(=O)CNC(=O)[C@H](CCCNC(=N)N)NC(=O)[C@H](CC(C)C)NC(=O)[C@H](CC(N)=O)NC(=O)[C@@H]1CCCN1C(=O)[C@@H](NC(=O)[C@H](C)NC(=O)[C@H](CC(N)=O)NC(=O)CCCC[C@@H]1SC[C@@H]2NC(=O)N[C@@H]21)C(C)C)C(=O)N[C@@H](CCC(N)=O)C(=O)N[C@H](C(=O)N[C@@H](CC(C)C)C(=O)N[C@@H](C)C(=O)N[C@@H](CCC(N)=O)C(=O)N[C@@H](CCCCN)C(=O)N[C@H](C(=O)N[C@@H](C)C(=O)N[C@@H](CCCNC(=N)N)C(=O)N[C@H](C(=O)N[C@@H](CCCCN)C(N)=O)[C@@H](C)O)C(C)C)C(C)C [Peptide A20FMDV2, reference compound]
[1]
  Kd: 63.1 ± 20.6 nM
αvβ6 integrin
  binding affinity reported previously: single digit nanomolar
